# Test results as given in PubChem BioAssay AID588473 (Sanford-Burnham Center for Chemical Genomics, 2011).
# Only a part is listed here, and it is no random draw. Some results for these compounds are left out of this collection, so the calls shown say nothing about other tests. The source made the active and inactive calls.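 The calls were made as follows: active = activation of at least 50%, plus an integration ratio under a set limit after plate pattern correction; inactive = the rest.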
# Tested on: CRF-binding protein / CRF receptor 2 complex (human)
# Experiment: activators of CRF-R2 with CRF-BP – cell-based, HEK293, calcium dye fluorescence, uHTS, primary screen (AID 588473);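 also: plate controls were neutral control wells without compound for no effect and CRF at EC100 for full effect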
# Details: calcium dye fluorescence (FLIPR), at 13.2 µM, hits give high values, percent of saturating CRF peptide response
row,Structure (SMILES),activation
1,C=C(C)C#CC(O)(C(=O)OC1CCN(C)CC1)c1ccccc1 (stereo unspecified),inactive: 3.68%
2,COc1ccc(Br)c(C(=O)NCC2(N3CCCCC3)CCCCC2)c1,inactive: 1.15%
3,O=C(OCCN1CCCC1)C(O)(c1ccccc1)c1ccccc1,inactive: -2.16%
4,CC(C)Oc1ccc(C(=O)NCC2(N(C)C)CCCCC2)cc1,inactive: -0.02%
5,CN(C)c1cccc(C(=O)NCC2(N(C)C)CCCCC2)c1,inactive: 0.54%
6,O=C(OC1CN2CCC1CC2)C(CO)(c1ccccc1)c1ccccc1 (stereo unspecified),inactive: -0.61%
7,COc1ccc(Cl)cc1C(=O)NCC1(N(C)C)CCCCC1,inactive: 1.23%
8,COc1cccc(C(=O)NCC2(N3CCCCC3)CCCCC2)c1,inactive: -2.3%
9,O=C(NCC1(N2CCCCC2)CCCCC1)c1cccc(Cl)c1,inactive: 3.82%
10,CN(C)C1(CNC(=O)c2ccc(Br)cc2)CCCCC1,inactive: 0.58%
11,COc1cc(C(=O)NCC2(N(C)C)CCCCC2)c([N+](=O)[O-])cc1OC,inactive: 0.96%
12,O=C(NCC1(N2CCCCC2)CCCCC1)c1cc(F)c(F)cc1Cl,inactive: -1.6%
13,C=CCN1CCN(CCOC(=O)C(O)(c2ccccc2)c2ccccc2)CC1,inactive: -2.98%
14,COc1ccc(C(=O)NCC2(N(C)C)CCCCC2)cc1,inactive: 0.64%
15,O=C(NCC1(N2CCCCC2)CCCCC1)c1cccc(Br)c1,inactive: -0.26%
16,Cc1cc(C(=O)NCC2(N3CCCCC3)CCCCC2)ccc1[N+](=O)[O-],inactive: 0.11%
17,CCN1CCCC(OC(=O)C2(O)c3ccccc3C=Cc3ccccc32)C1 (stereo unspecified),inactive: 1.34%
18,CN(C)C1CCCC1OC(=O)C(O)(c1ccccc1)c1ccccc1 (stereo unspecified),inactive: 0.65%
19,CN(C)c1ccc(C(=O)NCC2(N(C)C)CCCCC2)cc1,inactive: -2.18%
20,Cc1ccccc1C(=O)NCC1(N2CCCCC2)CCCCC1,inactive: 0.68%
21,COc1cc(SC)ccc1C(=O)NCC1(N(C)C)CCCCC1,inactive: 0.16%
22,CCN(CC)CC(C)C(C)OC(=O)C(O)(c1ccccc1)c1ccccc1 (stereo unspecified),inactive: 0.81%
23,CC(C)N1C(=O)CC2(CCN(CCOC(=O)C(O)(c3ccccc3)c3ccccc3)CC2)C1=O,inactive: 0.07%
24,Cc1ccc(C(=O)NCC2(N3CCCCC3)CCCCC2)cc1,inactive: 1.2%
25,O=C(NCC1(N2CCCCC2)CCCCC1)c1cc([N+](=O)[O-])ccc1Cl,inactive: 2.54%
26,CN1[C@@H]2CC[C@H]1CC(OC(=O)C(O)(c1ccccc1)c1ccccc1)C2 (stereo partly specified),inactive: -2.02%
